Sequences of proteins named here, by UniProt entry; tags and fusion partners are left off.
UniProt Q15858, whole entry: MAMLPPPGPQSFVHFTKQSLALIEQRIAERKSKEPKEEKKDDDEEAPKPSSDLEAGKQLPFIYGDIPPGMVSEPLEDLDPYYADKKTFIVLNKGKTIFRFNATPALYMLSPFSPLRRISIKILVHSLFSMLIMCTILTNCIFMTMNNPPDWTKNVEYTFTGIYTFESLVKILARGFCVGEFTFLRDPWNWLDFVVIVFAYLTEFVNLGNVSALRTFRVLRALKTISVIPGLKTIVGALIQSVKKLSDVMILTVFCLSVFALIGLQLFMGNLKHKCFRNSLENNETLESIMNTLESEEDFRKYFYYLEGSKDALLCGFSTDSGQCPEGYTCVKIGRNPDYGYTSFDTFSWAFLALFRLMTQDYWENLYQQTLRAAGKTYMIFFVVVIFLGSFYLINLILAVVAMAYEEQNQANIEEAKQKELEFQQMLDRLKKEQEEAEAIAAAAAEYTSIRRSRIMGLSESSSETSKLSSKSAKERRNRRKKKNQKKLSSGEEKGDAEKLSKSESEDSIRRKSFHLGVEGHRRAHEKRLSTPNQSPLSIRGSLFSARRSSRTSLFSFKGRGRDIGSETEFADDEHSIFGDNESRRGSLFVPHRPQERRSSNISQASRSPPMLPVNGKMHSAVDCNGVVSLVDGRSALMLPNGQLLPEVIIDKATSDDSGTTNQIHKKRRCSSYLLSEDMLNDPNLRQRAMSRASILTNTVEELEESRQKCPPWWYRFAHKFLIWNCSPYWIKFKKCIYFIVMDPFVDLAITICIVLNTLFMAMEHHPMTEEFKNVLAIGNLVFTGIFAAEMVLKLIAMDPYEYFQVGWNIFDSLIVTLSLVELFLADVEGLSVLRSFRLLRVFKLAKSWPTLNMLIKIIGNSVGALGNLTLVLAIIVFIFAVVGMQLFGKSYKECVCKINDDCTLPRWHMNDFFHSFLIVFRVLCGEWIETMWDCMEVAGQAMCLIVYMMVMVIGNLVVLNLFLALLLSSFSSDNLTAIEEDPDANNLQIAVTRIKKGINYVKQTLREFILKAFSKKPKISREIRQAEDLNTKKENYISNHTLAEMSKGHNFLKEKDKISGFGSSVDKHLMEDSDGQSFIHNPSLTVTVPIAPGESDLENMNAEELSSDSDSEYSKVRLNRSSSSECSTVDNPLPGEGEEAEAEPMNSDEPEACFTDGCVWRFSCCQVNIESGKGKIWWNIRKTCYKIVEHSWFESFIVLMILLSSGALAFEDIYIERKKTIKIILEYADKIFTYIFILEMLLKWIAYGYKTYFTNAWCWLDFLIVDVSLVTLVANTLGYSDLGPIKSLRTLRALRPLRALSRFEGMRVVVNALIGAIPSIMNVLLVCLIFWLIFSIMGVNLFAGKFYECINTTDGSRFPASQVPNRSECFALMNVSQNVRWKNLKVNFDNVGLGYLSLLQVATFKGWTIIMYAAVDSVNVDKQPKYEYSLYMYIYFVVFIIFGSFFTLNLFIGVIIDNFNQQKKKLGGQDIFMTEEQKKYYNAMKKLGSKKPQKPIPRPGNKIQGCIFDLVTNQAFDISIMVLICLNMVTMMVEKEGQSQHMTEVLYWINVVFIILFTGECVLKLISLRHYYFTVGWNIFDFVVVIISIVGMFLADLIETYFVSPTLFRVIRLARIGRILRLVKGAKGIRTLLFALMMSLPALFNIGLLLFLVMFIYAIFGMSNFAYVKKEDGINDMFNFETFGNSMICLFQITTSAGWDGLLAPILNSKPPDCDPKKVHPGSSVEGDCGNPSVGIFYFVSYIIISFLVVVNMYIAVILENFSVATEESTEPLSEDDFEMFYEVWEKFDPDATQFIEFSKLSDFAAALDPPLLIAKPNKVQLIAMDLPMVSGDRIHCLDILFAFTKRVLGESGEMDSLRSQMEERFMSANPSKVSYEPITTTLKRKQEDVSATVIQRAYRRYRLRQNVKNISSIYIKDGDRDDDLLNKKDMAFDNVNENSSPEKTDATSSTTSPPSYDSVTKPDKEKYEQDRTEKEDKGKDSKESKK

In patent publication US20220089663A1, “PROTEINS AND FLUOROPHORE-CONTAINING COMPOUNDS SELECTIVE FOR NaV1.7” (MEMORIAL SLOAN KETTERING CANCER CENTER, priority 2019, published 2022):

What was measured:
[1] = tested on: mouse sciatic nerves; assay: fluorescence stereoscope (Lumar) imaging of sciatic nerves; assay type: in vivo; details: 7 nmol i.v., 30 min post-injection
Protocol: Fluorescence Stereoscope Imaging. The Hsp1a-FL fluorescence signal in mouse sciatic nerves was also visualized using a fluorescence stereoscope 30 min after intravenous injection of Hsp1a-FL (7 nmol, 68 μM of Hsp1a-FL in 100 μL of PBS) or PBS (n=3/group). Fluorescence images were obtained using mice with exposed but otherwise intact sciatic nerves. Images were also obtained from excised sciatic nerves and muscle. Imaging was performed in bright field and fluorescence mode, with a 500/20 nm laser excitation and 535/30 emission filter and an exposure time of 200-400 ms.

[2] = target: hNav1.7 (Homo sapiens, UniProt Q15858); assay: automated whole-cell patch clamp (QPatch 16X), HEK293-hNav1.7; assay type: cell-based; design: host or cells: HEK293; details: HEK293 cells stably expressing human channel; read-out: IC50 Nav1.7
[3] = tested on: mouse sciatic nerves; assay: epifluorescence imaging (IVIS Spectrum) of sciatic nerves and organs 30 min after injection; assay type: in vivo
Protocol: Animal Model. Female athymic nude mice (4-8 week-old, athymic-Nude (outbred) (Stock #: 088; Envigo, USA) were allowed to acclimatize at the Memorial Sloan Kettering Cancer Center (MSK) vivarium for 1 week with ad libitum food and water prior to the experimental procedure. For imaging experiments, animals were sacrificed 30 min post-tail vein injection of Hs1a-FL, Hs1a/Hs1a-FL, Hsp1a-FL, Hsp1a/Hsp1a-FL, or PBS. All animal experiments were performed in accordance with institutional guidelines and approved by the IACUC of MSK, following NIH guidelines for animal welfare.
Epifluorescence Imaging. Animals were intravenously injected with Hsp1a-FL (7 nmol, 68 μM of Hsp1a-FL in 100 μL of PBS, n=9), or Hs1a-FL (4 nmol, 45 μM of Hs1a-FL in 100 μL of PBS, n=3). To assess the specificity of the Hsp1a-FL or Hs1a-FL accumulation, animals were injected with a combination of Hsp1a and Hsp1a-FL (Hsp1a-FL, 68 μM, 7 nmol and Hsp1a 204 μM, 21 nmol in 100 μL PBS, n=9), Hs1a and Hs1a-FL (Hs1a-FL, 45 μM, 4 nmol and Hs1a, 120 μM, 12 nmol in 100 μL PBS, n=3) or PBS (n=9). Animals were sacrificed 30 min post-injection and epifluorescence images obtained. Epifluorescence images of the right sciatic nerve (RSN) and the left sciatic nerve (LSN) were obtained in situ. Epifluorescence of the biodistribution of the peptides in excited RSN, LSN, muscle, heart, kidney, liver, and brain were acquired with IVIS Spectrum (PerkinElmer) using a predefined GFP filterset (e.g., excitation=465/30 nm, emission=520-580 nm) based on the particular fluorophore employed in the compounds. Autofluorescence was removed through spectral unmixing. Semiquantitative analysis of the Hsp1a-FL or Hs1a-FL signal was conducted by measuring the average radiant efficiency (in units of unit [p/s/cm^2/sr]/[μW/cm^2]) in regions of interest (ROIs) that were placed on all resected organs under white light guidance.

Structure (SMILES): CC[C@H](C)[C@H](NC(=O)[C@H](CCCCN)NC(=O)[C@@H]1CSSC[C@@H]2NC(=O)[C@@H]3CCCN3C(=O)[C@H](CCCNC(=N)N)NC(=O)[C@H](CCC(=O)O)NC(=O)[C@H](CO)NC(=O)[C@H](CC(=O)O)NC(=O)[C@@H]3CSSC[C@H](NC(=O)[C@H](C(C)C)NC(=O)[C@H](CC(C)C)NC(=O)CNC(=O)[C@H](CCC(=O)O)NC(=O)[C@H](CSSC[C@H](NC(=O)[C@@H](N)Cc4ccc(O)cc4)C(=O)N[C@@H](CCC(N)=O)C(=O)N[C@@H](CCCCNC(=O)CCC4=[N+]5C(=Cc6c(C)cc(C)n6[B-]5(F)F)C=C4)C(=O)N[C@@H](Cc4ccccc4)C(=O)N[C@@H](CC(C)C)C(=O)N[C@@H](Cc4c[nH]c5ccccc45)C(=O)N[C@@H]([C@@H](C)O)C(=O)N3)NC2=O)C(=O)N[C@@H](CCCNC(=N)N)C(=O)N[C@@H](CC(C)C)C(=O)N[C@@H](Cc2c[nH]c3ccccc23)C(=O)N1)C(=O)N[C@@H](CC(N)=O)C(N)=O [Hsp1a-FL]
- fluorescence intensity of sciatic nerves [1]: (2.6±1.7)×10^4
- IC50 [2]: 62 nM
- mean radiant efficiency, sciatic nerves ex vivo ([3]; 7 nmol i.v. alone, 30 min post-injection): (26±0.13)×10^7 [p/s/cm^2/sr]/[μW/cm^2]
- fluorescent signal in other organs, including muscle and liver, versus PBS ([3]; 7 nmol i.v., 30 min): No significant fluorescent signal
- radiant efficiency for the kidneys, with injection ([3]; 7 nmol i.v., 30 min): 0.1±0.01×10^7 [p/s/cm^2/sr]/[μW/cm^2]
- biodistribution in various tissues ([3]; 30 minutes after systemic injection): limited to the peripheral nervous system
- reduction in radiant efficiency by unmodified peptide ([3]; sciatic nerves ex vivo): 200 fold
